# Apparent affinities of Ab-14 variants for a coronavirus HR2 peptide

The target is the same throughout: PDVDLGDISGINAS, from the HR2 region of SARS-CoV-2 spike.

Parent scFv Ab-14: VH joined to VL by a (GGGGS)3 linker. Changes lie in the heavy chain CDRs alone.
VH: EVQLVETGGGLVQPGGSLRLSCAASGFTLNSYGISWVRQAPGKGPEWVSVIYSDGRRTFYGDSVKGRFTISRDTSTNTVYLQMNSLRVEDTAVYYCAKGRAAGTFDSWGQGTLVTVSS
VL: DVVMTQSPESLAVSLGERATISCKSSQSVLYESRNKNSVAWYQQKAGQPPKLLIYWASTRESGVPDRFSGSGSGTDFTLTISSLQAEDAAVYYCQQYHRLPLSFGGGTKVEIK

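Phage display of a naive human antibody library on the peptide gave the parent. The variants were designed computationally from a first round of random CDR variants and then made and measured. Several design methods are mixed in this list. Affinity was read by AlphaSeq, a pooled yeast mating assay with surface-displayed partners. Binding brings cells together so that they mate, and sequencing counts the barcode pairs among the diploids. A regression on co-assayed BCL2-family reference pairs converts the normalised counts of each replicate to an apparent Kd. Each pool was mated in six replicate cultures.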

The parent's heavy chain CDRs are GFTLNSYGIS, VIYSDGRRTFYGDSVK, GRAAGTFDS; each variant's own CDRs replace them letter for letter.
This list holds designs with at most six substitutions.
Kd is apparent (estimated from mating counts) and averaged on the log scale over replicates with a signal. Smaller is tighter.
An entry "nd" has no value in the source: the pair was not observed among the diploids in any replicate. This suggests poor binding but is not conclusive.
A sequence measured in both rounds can read differently, since the two assays cover different ranges.
The authors' rule: three or more of the six replicates give a measured affinity, fewer mean a poor binder.
Some sequences occur more than once in the pool; their replicates are pooled.
Background: pairings of all heavy chain designs with three empty control strains gave a value in 1% of cases (median 120 nM, 5th percentile 7.0 nM). Values in that range, when seen in few replicates, are hard to tell from nonspecific mating.
Of ten entries with the parent sequence, four were seen in most replicates (averages 2.2 nM to 240 nM), three in one and three in none, so single entries are noisy.

With GFSLNEYGIS | VIYSDGRRTFYGDSVK | GRAANTFDQ the result was nd (0 of 6 replicates).
With GFWLNSYGIS | VIYSDGRRTFYKDSVK | GQAAGTFDL the result was 52 nM (1 of 6 replicates).
With GFLLNDYGIS | VIYSDGRRTEYGDSVK | GRAAGTFDS the result was 220 pM (1 of 6 replicates).
With GFTINSYGIS | VIYSDGRRTFYGDSVK | GRAPGTFDS the result was nd (0 of 6 replicates).
With GFTLNSYGIS | VIYSDGRRTFYKDSVK | GQLAGTFDR the result was nd (0 of 6 replicates).
With GFTLDSYGIS | VIYSDGRRTFYVDSVK | GQLAGTFDS the result was 18 nM (1 of 6 replicates).
With GLTLNDYGIS | VIYSDGRRTFYGDSVK | GRADGTFDS the result was nd (0 of 6 replicates).
With GFTLNSYGIS | VIYSDGRRTFYGDSVK | GQNAGTFDT the result was 8.6 nM (5 of 6 replicates).
With GFTLNDYGTS | VIYSDGRRTQYIDSNK | GRAAGTFDS the result was nd (0 of 6 replicates).
With GFTLNNYGIS | VIYSDGRRTFYGDSVK | GRAAVTFDQ the result was nd (0 of 6 replicates).
With GFSLNDYGIS | VIYSDGRRTFYIDSVK | GKAAGTFDS the result was 11 nM (6 of 6 replicates).
With GFNLNSYGIS | VIYSDGRRTFYGDSVK | GKQAGTFDS the result was 18 nM (6 of 6 replicates).
With GFTLNEYGIS | VIYSDGRRTFYKDSVK | GRWAGTFDS the result was 3.7 nM (5 of 6 replicates).
With GFDLNSYGIS | VIYSDGRRTFYTDSVK | GRFAGTFDS the result was 630 pM (6 of 6 replicates).
With GFTLNDYGIS | VIYSDGRRTFYGDSVK | GKAAGTFVS the result was 1.7 nM (6 of 6 replicates).
With GFTLNDYGIS | VIYSDGRRTQYIDSLK | GRAAGTFDS the result was nd (0 of 6 replicates).
With GFNLNSYGIS | VIYSDGRRTFYADNVK | GNAAGTFDS the result was 2.6 nM (6 of 6 replicates).
With GFDLNSYGIS | VIYSDGRRTAYGDSVK | GRAAGTFDT the result was 2.1 nM (6 of 6 replicates).
With GFTLNSYGIS | VIYSDGRRQFYGDSVK | GRAAGTFDS the result was nd (0 of 6 replicates).
With GFSLNEYGIS | VIYSDGKRTFYGDRVK | GRTAGTFDS the result was 1.1 nM (6 of 6 replicates).
With GFDLNSYGIS | VIYSDGRRTFYGDSVK | GRTAGTFES the result was 2.2 nM (6 of 6 replicates).
With GFTLNSYGIR | VIYSDGRRTFYSDSVK | GRAGGTFDS the result was nd (0 of 6 replicates).
With GKSLNSYGIS | VIYSDGRRTFYKDSVK | GRTAGTFDS the result was 1.8 µM (1 of 6 replicates).
With GFSLNEYGIS | VIYSDGRRTFYGDSVK | GRQAGTFIS the result was nd (0 of 6 replicates).
With GFELNSYGIS | VIYSDGRRTFYIDSVK | GQEAGTFDS the result was 2.6 nM (6 of 6 replicates).
With GFTLNEYGIS | VIYSDGRRTFYSDSVK | GRAAGTLDS the result was 3.2 nM (6 of 6 replicates).
With GFSLKEYGIS | VIYSDGRRTFYGDSVK | GRAAGTFDS the result was 960 pM (6 of 6 replicates).
With KFTLNEYGIS | VIYSDGRRTFYTDSVK | GRFAGTFDS the result was 580 nM (4 of 6 replicates).
With GFVLNSYGIS | VIYSDGRRTFYSDSVK | GQAAGTFDS the result was 2.3 nM (1 of 6 replicates).
With GFSLNSYGIS | VIYSDGRRTFYSDSVK | GREAGTFDT the result was 1.1 nM (6 of 6 replicates).
With GFTMNSYGIS | VIYSDGRRTFYGDSVK | GRAKGTYDS the result was 120 nM (1 of 6 replicates).
With GFTLNNYGIS | VIYSDGRRTFYDDSVK | GRLAGTFDS the result was 21 nM (5 of 6 replicates).
With GFTINSYGVS | VIYSDGRRTFYSDSVK | GRDGGTFDD the result was nd (0 of 6 replicates).
With GFQLNEYGIS | VIYSDGRRTFYGDSVK | GWTAGTFDT the result was 1.8 nM (6 of 6 replicates).
With GFTLNSYGIS | VIYSDGRRTFYSDSVK | GVAGGTFDT the result was 30 nM (6 of 6 replicates).
With GFTLNSYGIS | VIYSDGRRTFYSDSVK | GRAAGTFDQ the result was 37 nM (6 of 6 replicates).
With GFTLNSYGIS | VIYADGRRTFYGDSVK | GRAAGTFLS the result was nd (0 of 12 replicates).
With KFNLNEYGIS | VIYSDGRRTFYTDSVK | GRCAGTFDS the result was 2.5 nM (1 of 6 replicates).
With GFTLNSYGIS | VIYSDGRRTQYGPSVK | GRAAITDDS the result was nd (0 of 6 replicates).
With GFTLNKYGIS | VIYSDGRRTQYGDSVK | GRAGGTFDS the result was nd (0 of 6 replicates).
With GFNLNSYGIS | VIYSDGRRTEYGDAVK | GRAAGTFDS the result was 10 nM (6 of 6 replicates).
With GFSLNSYGIS | VIYSDGRRTFYIDSVK | GRAAGTFDQ the result was 28 nM (6 of 6 replicates).
With GFTLNMYGIS | VIYSDGRRTFYKDSYK | GWAMGTFDS the result was nd (0 of 6 replicates).
With GHTLEKYGIS | VIYSDGRRTFYGDSVK | GRAAGTFCS the result was 33 nM (1 of 30 replicates).
With GFTLNSYGIS | VIYSDGRRTFYDDSVK | GAQAGTFDS the result was 26 nM (5 of 6 replicates).
With GFTLGSYSIS | VIYSDGRRTFYNDSVK | GRAAGTFDS the result was 100 nM (1 of 6 replicates).
With GFALNEYGIS | VIYSDGRRTFYGDSVK | GQAAGTFDK the result was 15 nM (6 of 6 replicates).
With GFSLNSYGIS | VIYSDGRRTFYIDSVK | GRHAGTFDS the result was 8.5 nM (2 of 6 replicates).

Top 6 of the variants detected in all replicates, tightest first:

For GFDLNSYGIS | VIYSDGRRTFYTDSVK | GRFAGTFDS, the assay gave 630 pM (6 of 6 replicates).
For GFSLKEYGIS | VIYSDGRRTFYGDSVK | GRAAGTFDS, the assay gave 960 pM (6 of 6 replicates).
For GFSLNEYGIS | VIYSDGKRTFYGDRVK | GRTAGTFDS, the assay gave 1.1 nM (6 of 6 replicates).
For GFSLNSYGIS | VIYSDGRRTFYSDSVK | GREAGTFDT, the assay gave 1.1 nM (6 of 6 replicates).
For GFTLNDYGIS | VIYSDGRRTFYGDSVK | GKAAGTFVS, the assay gave 1.7 nM (6 of 6 replicates).
For GFQLNEYGIS | VIYSDGRRTFYGDSVK | GWTAGTFDT, the assay gave 1.8 nM (6 of 6 replicates).

From the AlphaSeq antibody data of Li et al. 2023 (doi:10.1038/s41467-023-39022-2), copy in the FLAb collection.